Earlier results on one compound are cited in US5605911A, “Use of alpha-2 adrenergic drugs to prevent adverse effects of NMDA receptor hypofunction (NRH)” (priority 1995, dated 1997).

Each structure is given as a SMILES string.

This series deals with neurotoxic side effects caused by NMDA antagonists such as PCP or MK-801. As to conditions: Olney et al 1991, U.S. Pat. No. 5,034,400; cited from earlier work.

On to `CCN(CC)CCOC(=O)C(O)(c1ccccc1)c1ccccc1`, for which the “block of neurotoxic side effects caused by NMDA antagonists” value was “can block the neurotoxic side effects caused by NMDA antagonists”.
